Among the data in patent EP1144402B1, “SUBSTITUTED OXIMES AND HYDRAZONES AS NEUROKININ ANTAGONISTS” (SCHERING CORPORATION, priority 1998, dated 2000) are Ki values, retold here.

The chains behind the UniProt entries cited, without tags or fusion partners.
UniProt P25103, whole entry, species assumed: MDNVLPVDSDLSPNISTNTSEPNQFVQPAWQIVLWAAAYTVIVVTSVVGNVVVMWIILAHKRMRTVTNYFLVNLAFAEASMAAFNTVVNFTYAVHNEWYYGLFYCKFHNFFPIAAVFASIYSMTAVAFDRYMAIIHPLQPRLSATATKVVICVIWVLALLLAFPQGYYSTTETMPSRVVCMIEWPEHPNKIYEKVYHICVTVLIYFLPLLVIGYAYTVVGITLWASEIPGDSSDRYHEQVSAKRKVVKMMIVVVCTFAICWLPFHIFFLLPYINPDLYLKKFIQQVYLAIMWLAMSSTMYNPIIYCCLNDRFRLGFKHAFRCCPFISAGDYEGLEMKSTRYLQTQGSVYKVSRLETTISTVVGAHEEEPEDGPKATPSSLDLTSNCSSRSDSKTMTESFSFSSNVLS
UniProt P29371, whole entry: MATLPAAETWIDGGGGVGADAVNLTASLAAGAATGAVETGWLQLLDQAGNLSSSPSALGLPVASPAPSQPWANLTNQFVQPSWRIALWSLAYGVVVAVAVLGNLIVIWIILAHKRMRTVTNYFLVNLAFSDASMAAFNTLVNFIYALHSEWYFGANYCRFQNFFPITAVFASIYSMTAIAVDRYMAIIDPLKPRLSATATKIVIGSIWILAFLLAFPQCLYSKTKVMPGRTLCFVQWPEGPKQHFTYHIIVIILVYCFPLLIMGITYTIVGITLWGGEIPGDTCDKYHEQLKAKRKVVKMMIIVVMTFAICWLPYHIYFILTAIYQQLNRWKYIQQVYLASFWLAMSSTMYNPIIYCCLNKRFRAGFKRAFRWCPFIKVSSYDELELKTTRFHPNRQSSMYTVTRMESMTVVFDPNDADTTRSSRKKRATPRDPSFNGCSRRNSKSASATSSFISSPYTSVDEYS

One experiment deals with NK1 receptor (Homo sapiens, UniProt P25103). In words: neurokinin receptor binding assay (NK1). The source says:
(§1) The in vitro and in vivo activity of the compounds of formula I can be determined by various procedures known in the art, such as a test for their ability to inhibit the activity of the NK1 agonist Substance P, an isolated hamster trachea NK2 assay, a test of the effect of NK1 antagonists on Substance P-induced airway microvascular leakage, measurement of NK2 activity in vivo in guinea pigs, measurement of bronchoconstriction due to NKA, and neurokinin receptor binding assay(s). NK3 activity is determined by following a procedure similar to that described in the literature, e.g., Molecular Pharmacol., 48 (1995), p. 711-716. Typical procedures for determining NK1 and NK2 activity are described in U.S. 5,696,267, incorporated herein by reference.
% Inhibition of neurokinin agonist activity is the difference between the percent of maximum specific binding (MSB) and 100%. The percent of MSB is defined by the following equation, wherein "dpm" is disintegrations per minute: % MSB =((dpm of unknown) - (dpm of nonspecific binding))/((dpm of total binding) - (dpm of nonspecific binding))X 100 [formula]
(§2) Using the test procedures known in the art, the following data (% inhibition or Ki) were obtained for preferred and/or representative compounds of formula I: […]

Another experiment deals with NK3 receptor (Homo sapiens, UniProt P29371). As to the kind of experiment: neurokinin receptor binding assay (NK3).
Excerpt: as §1, §2

Take `CO/N=C(\CN(C)C(=O)c1cc(Cl)cc(Cl)c1)[C@H](CCN1CCC(N2CCCN(CC(C)(C)O)C2=O)CC1)c1ccc(Cl)c(Cl)c1` [Example 6K]: the inhibitory constant (Ki) at NK1 receptor and at NK3 receptor was 0.5 nM each time.
